# Measurements: paper PMC8286823, “Identifying SARS-CoV-2 antiviral compounds by screening for small molecule inhibitors of nsp15 endoribonuclease” (Biochemical Journal, 2021)
# Target: SARS-CoV-2 nsp15 endoribonuclease (Severe acute respiratory syndrome coronavirus 2, UniProt P0DTD1)
structure (smiles),measurement,value
CC(=O)[C@]1(O)Cc2c(O)c3c(c(O)c2[C@@H](O[C@H]2C[C@H](N)[C@H](O)[C@H](C)O2)C1)C(=O)c1ccccc1C3=O [Idarubicin],Z-score [High],-0.30
same,Z-score [Low],-0.61
